Tests used:
[1] = target: human μ opiate receptor (Homo sapiens, UniProt P35372); test: μ binding, displacement of [3H]-naloxone; conditions: CHO-K1 membranes expressing human μ opiate receptor; for Ki: read-out: Ki [μM] (μ), Cheng-Prusoff; for % inhibition (μ) at 1 μM: 1 μM test compound
[2] = system: mice; test: Testing of analgesia in the tail flick test in mice; conditions: mouse, 100 μg/kg i.v.
[3] = target: ORL1 receptor (Homo sapiens, UniProt P41146); test: ORL1 receptor binding assay with 3H-nociceptin/orphanin FQ; conditions: membranes from recombinant CHO-ORL1 cells; for Ki: read-out: Ki [μM] (ORL1); for % inhibition (ORL1) at 1 μM: 1 μM test compound

Chains of the proteins cited; added tags and fusions are not shown. Lines headed by an entry give the natural chain unless they say otherwise; changes in a name come on top.
UniProt P35372, whole entry, looked up: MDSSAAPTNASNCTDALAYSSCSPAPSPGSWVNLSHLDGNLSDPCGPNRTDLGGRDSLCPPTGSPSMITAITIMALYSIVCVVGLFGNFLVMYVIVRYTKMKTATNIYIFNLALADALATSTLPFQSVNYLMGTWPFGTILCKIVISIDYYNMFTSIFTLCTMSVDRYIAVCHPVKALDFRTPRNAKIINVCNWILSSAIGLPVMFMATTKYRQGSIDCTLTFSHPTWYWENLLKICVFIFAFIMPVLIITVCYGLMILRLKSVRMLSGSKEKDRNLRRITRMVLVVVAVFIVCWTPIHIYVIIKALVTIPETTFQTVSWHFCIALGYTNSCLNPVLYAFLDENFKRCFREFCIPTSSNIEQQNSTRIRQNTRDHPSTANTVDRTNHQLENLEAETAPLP
UniProt P41146: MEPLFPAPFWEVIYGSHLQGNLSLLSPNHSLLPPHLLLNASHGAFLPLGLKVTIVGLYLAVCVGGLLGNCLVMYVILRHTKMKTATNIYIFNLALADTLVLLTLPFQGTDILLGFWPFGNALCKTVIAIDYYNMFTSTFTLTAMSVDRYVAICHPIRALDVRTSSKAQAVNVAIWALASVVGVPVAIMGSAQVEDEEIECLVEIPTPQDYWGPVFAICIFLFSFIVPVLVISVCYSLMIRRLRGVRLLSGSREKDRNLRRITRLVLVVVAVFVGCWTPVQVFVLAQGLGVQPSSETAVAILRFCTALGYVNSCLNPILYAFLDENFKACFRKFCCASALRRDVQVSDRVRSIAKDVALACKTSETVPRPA

SMILES | Ki [1] | Tail-flick, i.v. [2] | Ki [3] | % inhibition (μ) at 1 μM [1] | % inhibition (ORL1) at 1 μM [3]
CN(C)C1(c2ccccc2)CCC(c2[nH]c3ccccc3c2CCO)CC1 (stereo not drawn) | 0.0044 µM | 99% MPE at 100 μg/kg | 0.0012 µM |  | 
CC(=O)NCCc1c(C2=CCC(c3ccccc3)(N(C)C)CC2)[nH]c2ccccc12 (racemic) |  |  |  | 98% | 79%
CCCCC1(N(C)C)CC=C(c2[nH]c3ccc(C(F)(F)F)cc3c2C)CC1 (racemic) | 0.14 µM |  |  |  | 73%
CCCCC1(N(C)C)CC=C(c2[nH]c3ccc(F)cc3c2C)CC1 (racemic) |  |  |  | 93% | 58%
CCCCC1(N(C)C)CC=C(c2[nH]c3ccc(F)cc3c2CCN2CCCCC2)CC1 (racemic) |  |  |  | 98% | 80%
CCCCC1(N(C)C)CC=C(c2[nH]c3ccc(F)cc3c2CCn2ccnn2)CC1 (racemic) |  |  |  | 97% | 52%
CCCCC1(N(C)C)CC=C(c2[nH]c3ccc(F)cc3c2CCn2cnc3ccccc32)CC1 (racemic) |  |  |  | 100% | 88%
CCCCC1(N(C)C)CC=C(c2[nH]c3ccccc3c2C)CC1 (racemic) |  |  |  | 100% | 96%
CCCCC1(N(C)C)CC=C(c2[nH]c3ccccc3c2C2CC2)CC1 (racemic) |  |  |  | 50% | 26%
CCCCC1(N(C)C)CC=C(c2[nH]c3ccccc3c2CCC)CC1 (racemic) | 0.53 µM |  |  |  | 48%
CCCCC1(N(C)C)CC=C(c2[nH]c3ccccc3c2CCCO)CC1 (racemic) |  |  |  | 98% | 74%
CCCCC1(N(C)C)CC=C(c2[nH]c3ccccc3c2CCNC(=O)CC(C)(C)C)CC1 (racemic) |  |  |  | 99% | 63%
CCCCC1(N(C)C)CC=C(c2[nH]c3ccccc3c2CCc2ccncc2)CC1 (racemic) |  |  |  | 101% | 78%
CCCCC1(N(C)C)CC=C(c2[nH]c3ccccc3c2Cc2ccccc2)CC1 (racemic) |  |  |  | 78% | 55%
CCCCC1(N(C)C)CC=C(c2c[nH]c3ncccc23)CC1 (racemic) |  |  |  | 49% | 12%
CCCc1c(C2=CCC(Cc3ccccc3)(N(C)C)CC2)[nH]c2ccccc12 (racemic) |  |  |  | 73% | 50%
CCCc1c(C2=CCC(c3ccccc3)(N(C)C)CC2)[nH]c2ccccc12 (racemic) |  |  |  | 37% | 17%
CN(C)C1(Cc2ccccc2)CC=C(c2[nH]c3ccc(F)cc3c2CCN2CCCCC2)CC1 (racemic) |  |  |  | 90% | 31%
CN(C)C1(Cc2ccccc2)CC=C(c2[nH]c3ccc(F)cc3c2CCn2ccnn2)CC1 (racemic) |  |  |  | 96% | 84%
CN(C)C1(Cc2ccccc2)CC=C(c2[nH]c3ccc(F)cc3c2CCn2cnc3ccccc32)CC1 (racemic) |  |  |  | 100% | 35%
CN(C)C1(Cc2ccccc2)CC=C(c2[nH]c3ccccc3c2CCCO)CC1 (racemic) |  |  |  | 95% | 64%
CN(C)C1(Cc2ccccc2)CC=C(c2[nH]c3ccccc3c2CCc2ccncc2)CC1 (racemic) |  |  |  | 97% | 16%
CN(C)C1(Cc2ccccc2)CC=C(c2c[nH]c3ncccc23)CC1 (racemic) |  |  |  | 80% | 32%
CN(C)C1(c2cc3ccccc3s2)CC=C(c2[nH]c3ccccc3c2CCO)CC1 (racemic) | 0.036 µM |  | 3 µM |  | 
CN(C)C1(c2ccccc2)CC=C(c2[nH]c3cc(Cl)c(Cl)cc3c2CCO)CC1 (racemic) |  |  | 2 µM | 40% | 
CN(C)C1(c2ccccc2)CC=C(c2[nH]c3cc(Cl)cc(Cl)c3c2CCO)CC1 (racemic) | 0.037 µM |  |  |  | 39%
CN(C)C1(c2ccccc2)CC=C(c2[nH]c3ccc(-c4cccnc4)cc3c2CCO)CC1 (racemic) | 0.32 µM |  |  |  | 49%
CN(C)C1(c2ccccc2)CC=C(c2[nH]c3ccc(F)cc3c2CCN2CCCCC2)CC1 (racemic) |  |  |  | 83% | 66%

SMILES | Ki [1] | Tail-flick, i.v. [2] | Ki [3] | % inhibition (μ) at 1 μM [1] | % inhibition (ORL1) at 1 μM [3]
CN(C)C1(c2ccccc2)CC=C(c2[nH]c3ccc(F)cc3c2CCO)CC1 (racemic) | 0.033 µM |  |  |  | 37%
CN(C)C1(c2ccccc2)CC=C(c2[nH]c3ccc(F)cc3c2CCn2ccnn2)CC1 (racemic) |  |  |  | 86% | 52%
CN(C)C1(c2ccccc2)CC=C(c2[nH]c3ccc(F)cc3c2CCn2cnc3ccccc32)CC1 (racemic) |  |  |  | 95% | 89%
CN(C)C1(c2ccccc2)CC=C(c2[nH]c3ccc([N+](=O)[O-])cc3c2CCO)CC1 (racemic) |  |  |  | 23% | 10%
CN(C)C1(c2ccccc2)CC=C(c2[nH]c3ccccc3c2C2CC2)CC1 (racemic) |  |  |  | 41% | 17%
CN(C)C1(c2ccccc2)CC=C(c2[nH]c3ccccc3c2CCCN)CC1 (racemic) | 0.0092 µM |  | 0.02 µM |  | 
CN(C)C1(c2ccccc2)CC=C(c2[nH]c3ccccc3c2CCCO)CC1 (racemic) | 0.024 µM |  |  |  | 66%
CN(C)C1(c2ccccc2)CC=C(c2[nH]c3ccccc3c2CCN2C(=O)c3ccccc3C2=O)CC1 (racemic) |  |  |  | 61% | 36%
CN(C)C1(c2ccccc2)CC=C(c2[nH]c3ccccc3c2CCN2CCCCC2)CC1 (racemic) |  |  |  | 92% | 90%
CN(C)C1(c2ccccc2)CC=C(c2[nH]c3ccccc3c2CCc2ccncc2)CC1 (racemic) |  |  |  | 92% | 62%
CN(C)C1(c2ccccc2)CC=C(c2[nH]c3ccccc3c2Cc2ccccc2)CC1 (racemic) |  |  |  | 40% | 29%
CN(C)C1(c2ccccc2)CC=C(c2c[nH]c3ncccc23)CC1 (racemic) |  |  |  | 72% | 37%
CN(C)C1(c2ccccc2)CC=C(c2cn(CCO)c3ccccc23)CC1 (racemic) | 0.81 µM |  |  |  | 20%
CN(C)C1(c2ccccc2)CC=C(c2cn(S(=O)(=O)c3ccccc3)c3ccccc23)CC1 (racemic) |  |  |  | 18% | 32%
COc1cc2[nH]c(C3=CCC(c4ccccc4)(N(C)C)CC3)c(CCO)c2cc1F (racemic) |  |  |  | 98% | 65%
COc1ccc2[nH]c(C3=CCC(c4ccccc4)(N(C)C)CC3)c(C)c2c1 (racemic) |  |  |  | 58% | 35%
Cc1c(C2=CCC(Cc3ccccc3)(N(C)C)CC2)[nH]c2ccccc12 (racemic) |  |  |  | 89% | 75%
Cc1c(C2=CCC(c3cccc(F)c3)(N(C)C)CC2)[nH]c2ccccc12 (racemic) |  |  |  | 38% | 40%
Cc1c(C2=CCC(c3ccccc3)(N(C)C)CC2)[nH]c2ccc(C#N)cc12 (racemic) |  |  |  | 96% | 87%
Cc1c(C2=CCC(c3ccccc3)(N(C)C)CC2)[nH]c2ccc(C(F)(F)F)cc12 (racemic) |  |  |  | 53% | 27%
Cc1c(C2=CCC(c3ccccc3)(N(C)C)CC2)[nH]c2ccc(F)cc12 (racemic) |  |  |  | 39% | 12%
Cc1c(C2=CCC(c3ccccc3)(N(C)C)CC2)[nH]c2ccccc12 (racemic) |  |  |  | 51% | 16%
Cc1c(C2=CCC(c3ccccc3)(N(C)C)CC2)[nH]c2ncccc12 (racemic) |  |  |  | 60% | 35%
Cc1c(C2=CCC(c3ccccc3)(N(C)C)CC2)n(CC(O)CN(C)C)c2ccccc12 (racemic) |  |  |  | 43% | 23%
Cc1c(C2=CCC(c3ccccc3)(N(C)C)CC2)n(CC2CO2)c2ccccc12 (racemic) |  |  |  | 64% | 29%
Cc1c(C2CCC(c3ccccc3)(N(C)C)CC2)n(CC2CO2)c2ccccc12 (racemic) |  |  |  | 97% | 95%
OCCc1c(C2=CCC(c3ccccc3)(N3CCCC3)CC2)[nH]c2ccc(F)cc12 (racemic) |  |  |  | 98% | 46%
